Source: PubChem BioAssay (Tox21)
Values joined by “and” are separate entries in the source; they are usually repeats but may differ in a detail not shown here. Identical values can stand only once. The list shows a part of the results, in another mix than the full data. Active and inactive are the calls of the source. Calls come from the whole dose curve.

Protein sequences, listed by entry. Tags and fused reporters are not part of them.
UniProt P22303, whole entry: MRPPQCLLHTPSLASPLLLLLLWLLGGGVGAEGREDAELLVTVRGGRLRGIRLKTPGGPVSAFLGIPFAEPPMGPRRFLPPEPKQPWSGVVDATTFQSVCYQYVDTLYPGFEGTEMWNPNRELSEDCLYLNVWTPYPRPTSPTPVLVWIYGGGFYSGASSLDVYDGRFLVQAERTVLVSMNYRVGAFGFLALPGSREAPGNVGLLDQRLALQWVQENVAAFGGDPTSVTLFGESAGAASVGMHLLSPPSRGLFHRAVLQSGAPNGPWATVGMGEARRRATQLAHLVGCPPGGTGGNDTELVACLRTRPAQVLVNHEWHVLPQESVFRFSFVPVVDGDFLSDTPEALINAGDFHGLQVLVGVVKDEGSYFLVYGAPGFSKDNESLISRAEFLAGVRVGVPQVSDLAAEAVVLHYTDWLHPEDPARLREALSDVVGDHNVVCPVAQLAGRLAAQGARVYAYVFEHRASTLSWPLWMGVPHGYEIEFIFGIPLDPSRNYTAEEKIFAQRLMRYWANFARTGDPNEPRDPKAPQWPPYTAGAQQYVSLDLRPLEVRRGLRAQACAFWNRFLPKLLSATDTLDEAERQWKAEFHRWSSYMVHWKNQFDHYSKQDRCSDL

target: Acetylcholinesterase (Homo sapiens) (UniProt P22303); assay: Acetylcholinesterase (AChE) small molecule antagonists: enzyme-based qHTS assay (AID 1347397); details: at 53 µM (top of the series); note: nearly all actives have a fitted effect of over 55% in size
Description: National Center for Advancing Translational Sciences [NCATS]
Division of Preclinical Innovation [DPI]
U.S. Environmental Protection Agency [EPA]
National Institutes of Environmental Health Sciences [NIEHS]
National Toxicology Program [NTP]
U.S. Food and Drug Administration [FDA]
Acetylcholinesterase (AChE) is the primary cholinesterase in the body that hydrolyzes a key neurotransmitter, acetylcholine. Inhibition of AChE activity can lead to neurotoxicity. The known inhibitors include organophosphorous pesticides (OP), chemical warfare agents, drugs, and various phytochemicals.
An enzyme-based assay with the recombinant human AChE and Amplite Colormetric acetylcholinesterase assay kit (AAT Bioquest, Sunnyvale, CA) was used to evaluate the chemicals in the Tox21 10K library that inhibit AChE activity. The assay uses 5, 5-dithiobis-(2-nitrobenzoic acid) (DTNB) to quantify the thiocholine produced from the hydrolysis of acetylthiocholine by AChE.
Tox21 Assay Protocol Summary:
For the enzyme-based AChE assay, recombinant human AChE (50 mU/mL) in 4 uL/well was dispensed into black, clear-bottom 1536-well plates using a Multidrop Combi dispenser (Thermo Scientific, MA). Then, 23 nL of compound or DMSO (vehicle control) was transferred into the assay plates by a Pintool Station (Wako Automation, CA). The plates were incubated for 30 min at room temperature, followed by the addition of 4 uL of colorimetric detection cocktail solution (DTNB, acetylthiocholine) into each well using a Flying Reagent Dispenser (Beckman Coulter, CA) and then 10 min incubation at room temperature.
% is set by controls: 0 for no effect and ±100 for the full control effect.

| SMILES | activity change, negative = inhibition |
| --- | --- |
| OCCSCCO | inactive: 0.408% |

same assay, conditions: at 115 µM (top of the series)

| SMILES | activity change, negative = inhibition |
| --- | --- |
| OCCSCCO | inactive: 0.0019% |

same assay, conditions: at 115 µM (top of the series) unless noted

| SMILES | activity change, negative = inhibition |
| --- | --- |
| COP(C)(=O)OC | inactive: 2.46% and inactive: 0.619% |
| N#CBr | inactive: -0.0019% |
| COc1ccc([N+](=O)[O-])cc1[N+](=O)[O-] | inactive: -16.2% |
| Cc1ccc([N+](=O)[O-])cc1[N+](=O)[O-] | inactive: -5.14% |
| O=[N+]([O-])c1cccc([N+](=O)[O-])c1 | inactive: 1.06% |
| Cc1c([N+](=O)[O-])cccc1[N+](=O)[O-] | inactive: 1.97% and inactive: -1.84% |
| CC(C)N(CCO)C(C)C | inactive: -0.886% |
| C/C1=C2N=C(/C=C3N=C(/C(C)=C4\[N-][C@@](C)([C@@H]5N=C1[C@](C)(CCC(=O)NC[C@@H](C)OP(=O)([O-])O[C@H]1[C@@H](O)[C@@H](n6cnc7cc(C)c(C)cc76)O[C@@H]1CO)[C@H]5CC(N)=O)[C@@](C)(CC(N)=O)[C@@H]4CCC(N)=O)[C@@](C)(CC(N)=O)[C@@H]\3CCC(N)=O)C(C)(C)[C@@H]/2CCC(N)=O.[C-]#N.[Co+3] | inactive: -1.35% [at 53 µM] |
| Nc1cc([N+](=O)[O-])cc([N+](=O)[O-])c1O | inactive: 1.1% |
| CCOP(=O)(Cl)Cl | inactive: 0% and inactive: 0.0687% |
| ClCCNCCCl | inactive: 1.89% |
| CCOP(=O)(CC)OCC | inactive: -0.136% |
| CCC(=O)N(c1ccccc1)C1CCNCC1 | inactive: -1.35% [at 53 µM] |
| CCN(CC)CCCl | inactive: 3.58% |
| ClCCOP(OCCCl)OCCCl | inactive: 2.88% and inactive: -1.79% |
| [NH4+].[O-][Cl+3]([O-])([O-])[O-] | inactive: -0.557% and inactive: -0.835% |
| N=C(N)N[N+](=O)[O-] | inactive: 0.545% |
| O=[N+]([O-])[O-].[NH4+] | inactive: 0.417% and inactive: 0.138% |
| CC(C)OP(OC(C)C)OC(C)C | inactive: 0.271% |
| O=[N+]([O-])OCC(CO[N+](=O)[O-])(CO[N+](=O)[O-])CO[N+](=O)[O-] | inactive: 1.44% |
| CN(C)CCCl | inactive: 0.954% |
| Cc1ccc([N+](=O)[O-])c([N+](=O)[O-])c1 | inactive: -0.994% and inactive: -4.41% |
| Cc1cccc([N+](=O)[O-])c1[N+](=O)[O-] | inactive: 1.77% [at 53 µM] |
| CP(=O)(O)OCCC[Si](O)(O)O | inactive: 3.04% |
| CCOC(=O)N1CCC(=O)CC1 | inactive: 0.47% [at 53 µM] |
